Laboratory results from patent publication US20070191426A1, “Derivatives of 3-aminocarbonylquinoline, pharmaceutical compositions containing them and processes and intermediates for their preparation” (priority 2003, published 2007).

Amino acid sequences for entries named in this document (tags omitted). Residues count along the entry.
UniProt Q07343, 1-564 isoform 2: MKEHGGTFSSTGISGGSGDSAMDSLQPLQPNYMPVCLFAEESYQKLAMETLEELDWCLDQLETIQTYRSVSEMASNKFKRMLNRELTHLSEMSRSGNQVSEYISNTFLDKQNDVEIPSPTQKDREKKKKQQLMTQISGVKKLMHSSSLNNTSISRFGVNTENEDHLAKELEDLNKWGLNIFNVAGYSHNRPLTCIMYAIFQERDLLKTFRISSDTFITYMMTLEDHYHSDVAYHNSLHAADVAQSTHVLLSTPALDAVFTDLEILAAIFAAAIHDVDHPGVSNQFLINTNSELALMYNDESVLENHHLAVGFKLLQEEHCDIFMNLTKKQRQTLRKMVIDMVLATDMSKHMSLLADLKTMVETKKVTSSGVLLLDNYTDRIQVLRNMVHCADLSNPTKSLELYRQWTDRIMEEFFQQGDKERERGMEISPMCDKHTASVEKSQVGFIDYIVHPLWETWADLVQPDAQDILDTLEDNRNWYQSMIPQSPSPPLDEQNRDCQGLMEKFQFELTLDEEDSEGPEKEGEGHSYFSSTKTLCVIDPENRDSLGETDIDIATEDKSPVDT

Experiments:
[1] = target: PDE5 (human recombinant) (Homo sapiens, UniProt O76074); test: Inhibition of PDE5 activity: radioactive Scintillation Proximity Assay (SPA); conditions: SPA assay (all Examples)
Excerpt: Human recombinant PDE5 is disclosed in K. Loughney et al., “Isolation and characterization of cDNAs encoding PDE5A, a human cGMP-binding, cGMP-specific 3′,5′-cyclic nucleotide phosphodiesterase”, Gene, 1998, 216, 139-147.
Inhibition of PDE3, PDE4B, PDE4D, PDE5 or PDE6 Activity: Radioactive Scintillation Proximity Assay (SPA)
The ability of compounds to inhibit catalytic activity at PDE4B or 4D (human recombinant), PDE3 (from bovine aorta) PDE5 (human recombinant) or PDE 6 (from bovine retina) was may be determined by Scintillation Proximity Assay (SPA) in 96-well format. Test compounds (preferably as a solution in DMSO, e.g. 2 microlitre (μl) volume) were preincubated at ambient temperature in Wallac Isoplates (code 1450-514) with PDE enzyme in 50 mM Tris-HCl buffer pH 7.5, 8.3 mM MgCl2, 1.7 mM EGTA, 0.05% (w/v) bovine serum albumin for 10-30 minutes. The enzyme concentration was adjusted so that control rates are linear over the assay incubation period. […] Bound radioactive product was measured using a WALLAC TRILUX 1450 MicroBeta scintillation counter. […] Curves were analyzed using ActivityBase and XLfit (ID Business Solutions Limited, 2 Ocean Court, Surrey Research Park, Guildford, Surrey GU2 7QB, United Kindgom). Results were expressed as pIC50 values.

[2] = target: PDE4B (human recombinant) (Homo sapiens, UniProt Q07343); test: Inhibition of PDE4B activity: IMAP Fluorescence Polarization (FP) assay; conditions: FP assay (Example 60)

- PDE5 mean pIC50 [1]: 4.5
- PDE4B mean pIC50 [2]: 9.0
SMILES: CCOC(=O)C1CCN(C(=O)c2cc(C)c3ncc(C(N)=O)c(Nc4ccc(F)c(OC)c4)c3c2)CC1
